Laboratory results as given in PubChem BioAssay AID651702 (NMMLSC, 2012).
This is a selection; strong and weak results do not stand in their true shares. Activity calls are given as the source filed them.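 Rule for the calls: active = inhibition above about 55% (limit read from the data); inconclusive = no clear call, values can overlap the other calls; inactive = the rest.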

Assay: LAMP-1 surface exposure blockers, TALL-104 cells – cell-based, flow cytometry, MLPCN library, primary screen (AID 651702)
Conditions: TALL-104 LAMP-1 surface exposure, at 10 µM, stronger effect = higher value, cells stimulated with thapsigargin and PMA

Row | Compound | inhibition
1 | O=C(NCC1(N2CCOCC2)CCCCC1)c1cc(Br)ccc1Cl | inactive: 1%
2 | COc1cc(C(=O)NCC2(N3CCOCC3)CCCCC2)cc(OC)c1C | inactive: -1.6%
3 | CCCCn1nnnc1C(c1ccccc1)N1CCC(n2c(=O)[nH]c3ccccc32)CC1 (stereo not drawn) | inactive: -1.5%
4 | O=c1[nH]c2ccccc2n1C1CCN(C(c2ccnc3ccccc23)c2nnnn2C2CCCC2)CC1 (stereo not drawn) | inactive: -1.7%
5 | COc1ccc(C(=O)NCC2(N3CCOCC3)CCCCC2)cc1OC | inactive: 1.4%
6 | O=c1[nH]c2ccccc2n1C1CCN(C(c2cccs2)c2nnnn2C2CCCCC2)CC1 (stereo not drawn) | inactive: -1.6%
7 | N/C(=N\O)c1c(N)no[n+]1[O-] | inactive: 0.6%
8 | CCOC(=O)N1CCC(Nc2ccc(C)cc2)CC1 | inactive: 5.6%
9 | COc1cccc(C(c2nnnn2C(C)(C)C)N2CCC(n3c(=O)[nH]c4ccccc43)CC2)c1OC (stereo not drawn) | inactive: 2.1%
10 | CCCCn1nnnc1C(c1cccc(OC)c1OC)N1CCC(n2c(=O)[nH]c3ccccc32)CC1 (stereo not drawn) | inactive: 1.3%
11 | O=c1[nH]c2ccccc2n1C1CCN(C(c2cccs2)c2nnnn2C2CCCC2)CC1 (stereo not drawn) | inactive: -3.5%
12 | O=C(OC1CN2CCC1CC2)C1c2ccccc2C=Cc2ccccc21 (stereo not drawn) | inactive: -0.6%
13 | CC(C)(C)OC(=O)N1CCC(N(C(=O)c2ccccc2)c2ccc(Cl)cc2)CC1 | inactive: 2.8%
14 | N#Cc1ccc(C(=O)NCC2(N3CCCCC3)CCCCC2)cc1 | inactive: -3.8%
15 | CCCN1CCC(Nc2cc(OC)cc(OC)c2)CC1 | inactive: -1.9%
16 | O=c1[nH]c2ccccc2n1C1CCN(C(c2ccccc2)c2nnnn2C2CCCC2)CC1 (stereo not drawn) | inactive: -0.8%
17 | Cc1cc(N(CCCl)CCCl)ccc1C=O | inactive: -9.9%
18 | c1ccc(CN2CCC(Nc3ccccc3)CC2)cc1 | inactive: -0.9%
19 | CN(C)C1(CNC(=O)c2cccc(C#N)c2)CCCCC1 | inactive: -4.5%
20 | CC(C)(C)n1nnnc1C(c1cccc2ccccc12)N1CCC(n2c(=O)[nH]c3ccccc32)CC1 (stereo not drawn) | inactive: -0.8%
21 | COc1cc(OC)cc(C(=O)NCC2(N3CCCCC3)CCCCC2)c1 | inactive: -10.9%
22 | O=c1[nH]c2ccccc2n1C1CCN(C(c2ccnc3ccccc23)c2nnnn2C2CCCCC2)CC1 (stereo not drawn) | inactive: -0.5%

Row | Compound | inhibition
23 | CCC(c1nnnn1C1CCCCC1)N1CCC(n2c(=O)[nH]c3ccccc32)CC1 (stereo not drawn) | inactive: -6.6%
24 | COc1cccc(C(c2nnnn2C2CCCCC2)N2CCC(n3c(=O)[nH]c4ccccc43)CC2)c1OC (stereo not drawn) | inactive: -0.5%
25 | CC(=O)N(c1ccccc1)C1CCNCC1 | inactive: -11%
26 | Cc1ccc(NC2(C#N)CCN(Cc3ccccc3)CC2)cc1 | inactive: 1.2%
27 | Fc1ccccc1NC1CCN(Cc2ccccc2)CC1 | inactive: 5.2%
28 | Cc1ccc(C(=O)NCC2(N3CCCCC3)CCCCC2)o1 | inactive: 3.5%
29 | COc1ccc(C(c2nnnn2C2CCCCC2)N2CCC(n3c(=O)[nH]c4ccccc43)CC2)cc1 (stereo not drawn) | inactive: 0.5%
30 | CCN1CCC(Nc2cccc(F)c2)CC1 | inactive: 3.7%
31 | CC(C)(C)n1nnnc1C(c1ccnc2ccccc12)N1CCC(n2c(=O)[nH]c3ccccc32)CC1 (stereo not drawn) | inactive: -10.9%
32 | Cc1ccccc1NC1(C#N)CCN(Cc2ccccc2)CC1 | inactive: -4.5%
33 | CN(C)c1ccc(C(=O)NCC2(N3CCCCC3)CCCCC2)cc1 | inactive: -2.5%
34 | Cn1c(=O)[nH]cc(N(CCCl)CCCl)c1=O | inactive: 5.8%
35 | O=C(NCC1(N2CCCCC2)CCCCC1)c1ccco1 | inactive: 21.2%
36 | CN1CCC(Nc2ccc(F)c(Cl)c2)CC1 | inactive: 5%
37 | CCOc1ncccc1C(=O)NCC1(N2CCOCC2)CCCCC1 | inactive: 6.2%
38 | O=c1[nH]c2ccccc2n1C1CCN(C(c2cc3ccccc3o2)c2nnnn2C2CCCC2)CC1 (stereo not drawn) | inactive: -7.8%
39 | CCCOc1ccc(C(=O)NCC2(N(C)C)CCCCC2)cc1 | inactive: 2.8%
40 | O=C(O)C1(Nc2ccccc2)CCN(Cc2ccccc2)CC1 | inactive: 8.7%
41 | NN(c1ccccc1)C1CCN(CCc2ccccc2)CC1 | inactive: 3.4%
42 | CC(C)(C)OC(=O)N1CCC(Nc2ccccc2)CC1 | inactive: -2.5%
43 | CCC(CO)(C(=O)OC1CN2CCC1CC2)c1ccccc1 (stereo not drawn) | inactive: 1.7%
44 | COc1cccc(C(c2nnnn2C2CCCC2)N2CCC(n3c(=O)[nH]c4ccccc43)CC2)c1OC (stereo not drawn) | inactive: -0.9%

Row | Compound | inhibition
45 | COc1cc(OC)cc(C(=O)NCC2(N3CCOCC3)CCCCC2)c1 | inactive: 0.6%
46 | COc1cccc(C(=O)N(c2cc(C)cc(C)c2)C2CCN(C(=O)OC(C)(C)C)CC2)c1 | inactive: 4.7%
47 | CN1CCC(Nc2ccc(Cl)cc2)CC1 | inactive: 7.4%
48 | CCCCn1nnnc1C(CC)N1CCC(n2c(=O)[nH]c3ccccc32)CC1 (stereo not drawn) | inactive: -3.8%
49 | O=C(NCC1(N2CCCCC2)CCCCC1)c1cccs1 | inactive: -3.3%
50 | CCCCn1nnnc1C(c1cccs1)N1CCC(n2c(=O)[nH]c3ccccc32)CC1 (stereo not drawn) | inactive: 4.4%
51 | O=C(NCC1(N2CCCCC2)CCCCC1)c1ccc(=O)[nH]c1 | inactive: -3.4%
52 | COc1ccc(C(=O)NCC2(N3CCCCC3)CCCCC2)c(OC)c1OC | inactive: -2.6%
53 | CC(C)(C)OC(=O)N1CCC(N(C(=O)c2ccccc2)c2ccc(F)cc2)CC1 | inactive: -4.3%
54 | CCC(c1nnnn1C1CCCC1)N1CCC(n2c(=O)[nH]c3ccccc32)CC1 (stereo not drawn) | inactive: -4.7%
55 | COc1ccc(C(=O)NCC2(N3CCCCC3)CCCCC2)cc1 | inactive: -5.2%
56 | Cc1cccc(NC2(C#N)CCN(Cc3ccccc3)CC2)c1 | inactive: -1.2%
57 | CSc1ccccc1C(=O)NCC1(N2CCCCC2)CCCCC1 | inactive: 3.9%
58 | O=C(NCC1(N2CCOCC2)CCCCC1)c1cc2ccccc2o1 | inactive: -3.4%
59 | Cc1cc(C)cc(N(C(=O)c2ccccc2)C2CCN(C(=O)OC(C)(C)C)CC2)c1 | inactive: 14.7%
60 | O=C(NCC1(N2CCCCC2)CCCCC1)c1ccc(Cl)nc1 | inactive: 0.6%
61 | O=c1[nH]c2ccccc2n1C1CCN(C(c2ccccc2OC(F)(F)F)c2nnnn2C2CCCCC2)CC1 (stereo not drawn) | inactive: -5.9%
62 | CCCCn1nnnc1C(c1ccc(OC)cc1)N1CCC(n2c(=O)[nH]c3ccccc32)CC1 (stereo not drawn) | inactive: -3.3%
63 | CCOC(=O)N1CCC(Nc2ccc(OC)cc2)CC1 | inactive: -7.2%
64 | COc1ccc(Cl)cc1C(=O)NCC1(N2CCOCC2)CCCCC1 | inactive: -0.7%
65 | N#CC1(Nc2ccccc2)CCN(Cc2ccccc2)CC1 | inactive: -5.7%
66 | O=C(NCC1(N2CCCCC2)CCCCC1)c1ccc(Cl)s1 | inactive: -2.3%

Row | Compound | inhibition
67 | O=C(OC1CN2CCC1CC2)C1c2ccccc2Oc2ccccc21 (stereo not drawn) | inactive: 5.5%
68 | O=c1[nH]c2ccccc2n1C1CCN(C(c2cc3ccccc3o2)c2nnnn2C2CCCCC2)CC1 (stereo not drawn) | inactive: -7.1%
69 | CCOc1ccc(C)cc1CN(CCCl)CCCl | inactive: -9.3%
70 | O=C1CCN(Cc2ccccc2)CC1 | inactive: 12.9%
71 | CC(C)(C)n1nnnc1C(c1ccccc1)N1CCC(n2c(=O)[nH]c3ccccc32)CC1 (stereo not drawn) | inactive: -1.7%
72 | COc1ccc(NC2CCN(CCc3ccccc3)CC2)c(OC)c1 | inactive: 5%
73 | CCOC(=O)N1CCC(Nc2ccc(F)cc2)CC1 | inactive: 0.5%
74 | O=P1(N(CCCl)CCCl)SCCCS1 | inactive: 16.2%
75 | CCCCn1nnnc1C(c1cc2ccccc2o1)N1CCC(n2c(=O)[nH]c3ccccc32)CC1 (stereo not drawn) | inactive: 0.1%
76 | CCCCOc1ccc(C(=O)NCC2(N3CCOCC3)CCCCC2)cc1 | inactive: 3.3%
77 | O=C(NCC1(N2CCCCC2)CCCCC1)c1ccc(F)cc1 | inactive: -2.1%
78 | O=c1[nH]c2ccccc2n1C1CCN(C(c2ccccc2)c2nnnn2C2CCCCC2)CC1 (stereo not drawn) | inactive: -3.3%
79 | O=c1[nH]c2ccccc2n1C1CCN(C(c2cccc3ccccc23)c2nnnn2C2CCCC2)CC1 (stereo not drawn) | inactive: 8.9%
80 | CCOC(=O)N1CCC(Nc2cccc(C)c2)CC1 | inactive: -5.3%
81 | COc1cc(C(=O)NCC2(N(C)C)CCCCC2)ccc1OC(F)F | inactive: 14.4%
82 | O=C(NCC1(N2CCCCC2)CCCCC1)c1ccc(OC(F)F)cc1 | inactive: 5.9%
83 | CC(C)(C)n1nnnc1C(c1ccccc1OC(F)(F)F)N1CCC(n2c(=O)[nH]c3ccccc32)CC1 (stereo not drawn) | inactive: -2.1%
84 | CSc1ccc(C(=O)NCC2(N3CCOCC3)CCCCC2)cc1 | inactive: -1.6%
85 | O=C(NCC1(N2CCCCC2)CCCCC1)c1cccc([N+](=O)[O-])c1 | inactive: 1.6%
86 | O=c1[nH]c2ccccc2n1C1CCN(C(c2ccccc2OC(F)(F)F)c2nnnn2C2CCCC2)CC1 (stereo not drawn) | inactive: 10.9%
87 | N#CC1(Nc2ccccc2)CCN(CCc2ccccc2)CC1 | inactive: -0.9%
88 | CCN1CCC(Nc2ccc(Cl)cc2)CC1 | inactive: 4.9%

Row | Compound | inhibition
89 | O=C(NCC1(N2CCCCC2)CCCCC1)c1cccc(C(F)(F)F)c1 | inactive: 0.1%
90 | CN1CCN(CCOC(=O)C(O)(c2ccccc2)c2ccccc2)CC1 | inactive: 2.2%
91 | COc1ccc(NC2CCN(C(=O)OC(C)(C)C)CC2)cc1 | inactive: 0.2%
92 | CC(C)c1ccc(C(=O)NCC2(N3CCOCC3)CCCCC2)cc1 | inactive: -7.7%
93 | CCCCn1nnnc1C(c1cccc2ccccc12)N1CCC(n2c(=O)[nH]c3ccccc32)CC1 (stereo not drawn) | inactive: 6.9%
94 | COc1cc(C(=O)NCC2(N3CCCCC3)CCCCC2)ccc1OC(F)F | inactive: -13.4%
95 | O=C(NCC1(N2CCOCC2)CCCCC1)c1cc(=O)[nH]c2ccccc12 | inactive: 0.5%
96 | CN(C)c1cccc(C(=O)NCC2(N3CCCCC3)CCCCC2)c1 | inactive: -0.3%
97 | COc1ccc(CN(CCCl)CCCl)cc1Cl | inactive: -0.8%
98 | CC(C)c1ccc(NC2CCN(C(=O)OC(C)(C)C)CC2)cc1 | inactive: -7.8%
99 | CCCCn1nnnc1C(c1ccccc1OC(F)(F)F)N1CCC(n2c(=O)[nH]c3ccccc32)CC1 (stereo not drawn) | inactive: -6.7%
100 | CCCCn1nnnc1C(c1ccnc2ccccc12)N1CCC(n2c(=O)[nH]c3ccccc32)CC1 (stereo not drawn) | inactive: 4.3%
101 | CCC(c1nnnn1C(C)(C)C)N1CCC(n2c(=O)[nH]c3ccccc32)CC1 (stereo not drawn) | inactive: 3.5%
102 | O=C(NCC1(N2CCOCC2)CCCCC1)c1cc(F)c(F)cc1Cl | inactive: -1.8%
103 | COc1cc(OC)c(C(=O)NCC2(N(C)C)CCCCC2)cc1OC | inactive: 0%
104 | CN1CCC(Nc2cccc(F)c2)CC1 | inactive: -2.4%
105 | O=C(NCC1(N2CCCCC2)CCCCC1)c1cncc(Br)c1 | inactive: 5.1%
106 | CCCOc1ccc(C(=O)NCC2(N(C)C)CCCCC2)cc1OC | inactive: -6.3%
107 | Cc1ccc(C(=O)NCC2(N(C)C)CCCCC2)o1 | inactive: 2.7%
108 | COc1ccc(C(c2nnnn2C2CCCC2)N2CCC(n3c(=O)[nH]c4ccccc43)CC2)cc1 (stereo not drawn) | inactive: -0.8%
